Source: patent publication US20070059731A1

Protein sequences, listed by entry. Tags and fused reporters are not part of them. Residues count along the entry.
UniProt P05412, 257-318: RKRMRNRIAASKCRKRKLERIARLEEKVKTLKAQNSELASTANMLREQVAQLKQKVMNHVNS

Molecular target: bJun-CC (UniProt P05412)
Experiment: cell-based or functional assay

YN-Ub (from UniProt P0CG47 1-76)
level of ubiquitination detected by Western blot analysis of cell extracts, relative to full length Jun: 10 fold lower
